Test results from patent publication US6689753B1, “β sheet breaker peptide analogs that inhibit β pleated sheet formation in amyloid β-peptide” (Axonyx, Inc., priority 1999, dated 2004).
Residues, ends and D or L forms follow the SMILES beside them.

Sequences of proteins named here, by UniProt entry; tags and fusion partners are left off. Residues count along the entry.
UniProt P05067, 672-713: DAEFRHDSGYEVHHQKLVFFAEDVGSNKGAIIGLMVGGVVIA

Molecular target: Aβ1-42 amyloid deposits (Homo sapiens, UniProt P05067)
Details: 1.3 mg infused into lateral ventricle over three weeks, starting 7 days after Aβ1-42, FIG. 6

CC(=O)N[C@@H](CC(C)C)C(=O)N1CCC[C@H]1C(=O)N[C@@H](Cc1ccccc1)C(=O)N[C@@H](Cc1ccccc1)C(=O)N[C@@H](CC(=O)O)C(N)=O [Ac-iAβ5-Am, Ac-Leu Pro Phe Phe Asp-Am] (Ac-LPFFD-NH2)
dissolution of preformed amyloid plaque in the amygdala: 30%
dissolution of the deposits located near the ventricle: 83%
